Sequences of proteins named here, by UniProt entry; tags and fusion partners are left off. A change or cut given only in a name is not applied to a line headed by its entry.
UniProt P51685, whole entry: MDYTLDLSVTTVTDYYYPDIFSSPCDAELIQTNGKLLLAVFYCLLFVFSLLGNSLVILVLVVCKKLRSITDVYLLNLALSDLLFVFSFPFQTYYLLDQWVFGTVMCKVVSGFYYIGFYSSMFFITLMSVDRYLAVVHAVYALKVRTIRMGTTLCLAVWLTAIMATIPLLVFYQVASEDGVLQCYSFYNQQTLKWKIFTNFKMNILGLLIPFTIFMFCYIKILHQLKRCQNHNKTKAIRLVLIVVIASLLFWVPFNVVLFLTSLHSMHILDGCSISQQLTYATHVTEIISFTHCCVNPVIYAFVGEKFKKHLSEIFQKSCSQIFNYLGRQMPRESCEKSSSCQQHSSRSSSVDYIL
UniProt Q12809: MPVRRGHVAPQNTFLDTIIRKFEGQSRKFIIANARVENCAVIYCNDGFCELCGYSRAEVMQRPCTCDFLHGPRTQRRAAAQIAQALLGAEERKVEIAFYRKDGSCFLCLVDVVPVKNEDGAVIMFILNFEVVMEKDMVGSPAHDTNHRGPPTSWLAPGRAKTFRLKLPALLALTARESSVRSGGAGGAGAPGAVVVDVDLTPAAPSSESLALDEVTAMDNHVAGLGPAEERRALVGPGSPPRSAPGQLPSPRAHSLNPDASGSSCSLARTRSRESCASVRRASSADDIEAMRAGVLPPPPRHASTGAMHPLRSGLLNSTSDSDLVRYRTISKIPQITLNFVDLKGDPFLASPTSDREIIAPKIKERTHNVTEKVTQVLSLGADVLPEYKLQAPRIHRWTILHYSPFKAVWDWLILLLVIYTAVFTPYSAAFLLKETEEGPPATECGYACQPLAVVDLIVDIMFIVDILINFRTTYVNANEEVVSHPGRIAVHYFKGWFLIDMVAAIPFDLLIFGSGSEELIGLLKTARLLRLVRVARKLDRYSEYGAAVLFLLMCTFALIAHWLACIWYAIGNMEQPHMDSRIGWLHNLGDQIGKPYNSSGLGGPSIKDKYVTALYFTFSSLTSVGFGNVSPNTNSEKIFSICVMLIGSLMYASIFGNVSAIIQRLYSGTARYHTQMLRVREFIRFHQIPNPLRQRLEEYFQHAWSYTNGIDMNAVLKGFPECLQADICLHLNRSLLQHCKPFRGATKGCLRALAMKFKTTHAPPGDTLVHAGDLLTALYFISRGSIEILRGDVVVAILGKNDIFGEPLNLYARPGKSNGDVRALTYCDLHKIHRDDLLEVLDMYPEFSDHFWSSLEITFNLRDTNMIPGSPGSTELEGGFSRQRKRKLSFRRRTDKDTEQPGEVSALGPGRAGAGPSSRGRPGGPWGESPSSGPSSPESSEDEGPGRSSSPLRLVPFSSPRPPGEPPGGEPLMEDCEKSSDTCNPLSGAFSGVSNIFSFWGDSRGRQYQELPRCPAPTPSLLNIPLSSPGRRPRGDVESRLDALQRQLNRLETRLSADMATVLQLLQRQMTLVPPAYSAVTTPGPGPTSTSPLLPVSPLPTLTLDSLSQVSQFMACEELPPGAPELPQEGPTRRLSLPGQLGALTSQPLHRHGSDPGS

According to ChEMBL document CHEMBL1154736, “Increasing selectivity of CC chemokine receptor 8 antagonists by engineering nondesolvation related interactions with the intended and off-target binding sites” (J Med Chem, 2009):

What was measured:
[1] = target: C-C chemokine receptor type 8 (Homo sapiens, UniProt P51685); assay: Antagonist activity at human CCR8; type: functional
[2] = target: T1, Voltage-gated inwardly rectifying potassium channel KCNH2 (Homo sapiens, UniProt Q12809); assay: Displacement of [3H]dofetilide from human recombinant ERG expressed in HEK293 cells by patch clamp method
[3] = target: T1, Voltage-gated inwardly rectifying potassium channel KCNH2; assay: Inhibition of wild type human ERG expressed in CHOK1 cells by whole-cell plate-based electrophysiology

Row | IC50 [1] | SMILES | IC50 [2] | IC50 [3]
1 | 0.0174 µM | O=C(c1ccncc1)N1CCC2(CCN(Cc3cccc(Oc4ccccc4)c3)CC2)CC1 |  | 
2 | 0.129 µM | CC1Cc2cccc(CN3CCC4(CC3)CCN(C(=O)c3ccncc3)CC4)c2O1 (stereo not given) | 8.13 µM | 20.9 µM
3 |  | CC1(C)C=Cc2cccc(CN3CCC4(CC3)CCN(C(=O)c3ccnc(N)c3)CC4)c2O1 |  | 38 µM
